From PubChem BioAssay (NCI)
Some tests of the compounds listed are not included; inactive here does not mean inactive elsewhere.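 Grown in 96-well plates, cells were treated for 48 hours with each compound at five concentrations. Insufficient inhibition: endpoint recorded as highest concentration tested. GI50: concentration for 50% inhibition of growth. Definition used: TGI = concentration required for complete inhibition of growth.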

Legend:
Test in all cases: inhibition of tumour cell growth, NCI panel, 48 h
NCI-H23 lung = test system: NCI-H23 lung
RPMI-8226 leukemia = test system: RPMI-8226 leukemia
EKVX NSCLC = test system: EKVX NSCLC
K-562 leukemia = test system: K-562 leukemia
UACC-62 melanoma = test system: UACC-62 melanoma
A549 NSCLC = test system: A549 NSCLC
MDA-N = test system: MDA-N
SK-OV-3 ovarian = test system: SK-OV-3 ovarian
MOLT-4 leukemia = test system: MOLT-4 leukemia
OVCAR-5 ovarian = test system: OVCAR-5 ovarian
LOX IMVI melanoma = test system: LOX IMVI melanoma
HOP-62 NSCLC = test system: HOP-62 NSCLC
NCI-H522 lung = test system: NCI-H522 lung
OVCAR-8 ovarian = test system: OVCAR-8 ovarian
MALME-3M melanoma = test system: MALME-3M melanoma
DU-145 prostate = test system: DU-145 prostate
UO-31 renal = test system: UO-31 renal
NCI/ADR-RES ovarian = test system: NCI/ADR-RES ovarian
SK-MEL-5 melanoma = test system: SK-MEL-5 melanoma
CCRF-CEM leukemia = test system: CCRF-CEM leukemia
HCT-15 colon = test system: HCT-15 colon
SF-539 CNS = test system: SF-539 CNS
RXF 393 renal = test system: RXF 393 renal
HT29 colon = test system: HT29 colon
PC-3 prostate = test system: PC-3 prostate
UACC-257 melanoma = test system: UACC-257 melanoma
HCT-116 colon = test system: HCT-116 colon
SN12C renal = test system: SN12C renal
NCI-H226 lung = test system: NCI-H226 lung
786-0 renal = test system: 786-0 renal
SF-268 CNS = test system: SF-268 CNS
IGROV1 ovarian = test system: IGROV1 ovarian
SNB-19 CNS = test system: SNB-19 CNS
COLO 205 colon = test system: COLO 205 colon
OVCAR-3 ovarian = test system: OVCAR-3 ovarian
TK-10 renal = test system: TK-10 renal
T-47D breast = test system: T-47D breast
MDA-MB-231 breast = test system: MDA-MB-231 breast
HL-60(TB) leukemia = test system: HL-60(TB) leukemia
CAKI-1 renal = test system: CAKI-1 renal
M14 melanoma = test system: M14 melanoma
ACHN renal = test system: ACHN renal
U251 CNS = test system: U251 CNS
SF-295 CNS = test system: SF-295 CNS
SNB-75 CNS = test system: SNB-75 CNS
KM12 colon = test system: KM12 colon
SW-620 colon = test system: SW-620 colon
MCF7 breast = test system: MCF7 breast
SR leukemia = test system: SR leukemia
HCC-2998 colon = test system: HCC-2998 colon
SK-MEL-28 melanoma = test system: SK-MEL-28 melanoma

Compound: C=C(C)C(O)(C(=O)OC1CN2CCC1CC2)c1cccs1 (configuration not stated)
- GI50 (NCI-H23 lung): > 100 µM
- TGI (NCI-H23 lung): > 100 µM
- GI50 (RPMI-8226 leukemia): > 100 µM
- TGI (RPMI-8226 leukemia): > 100 µM
- GI50 (EKVX NSCLC): > 100 µM
- TGI (EKVX NSCLC): > 100 µM
- GI50 (K-562 leukemia): > 100 µM
- TGI (K-562 leukemia): > 100 µM
- GI50 (UACC-62 melanoma): > 100 µM
- TGI (UACC-62 melanoma): > 100 µM
- GI50 (A549 NSCLC): > 100 µM
- TGI (A549 NSCLC): > 100 µM
- GI50 (MDA-N): > 100 µM
- TGI (MDA-N): > 100 µM
- GI50 (SK-OV-3 ovarian): > 100 µM
- TGI (SK-OV-3 ovarian): > 100 µM
- GI50 (MOLT-4 leukemia): > 100 µM
- TGI (MOLT-4 leukemia): > 100 µM
- GI50 (OVCAR-5 ovarian): > 100 µM
- TGI (OVCAR-5 ovarian): > 100 µM
- GI50 (LOX IMVI melanoma): > 100 µM
- TGI (LOX IMVI melanoma): > 100 µM
- GI50 (HOP-62 NSCLC): > 100 µM
- TGI (HOP-62 NSCLC): > 100 µM
- GI50 (NCI-H522 lung): > 100 µM
- TGI (NCI-H522 lung): > 100 µM
- GI50 (OVCAR-8 ovarian): > 100 µM
- TGI (OVCAR-8 ovarian): > 100 µM
- GI50 (MALME-3M melanoma): > 100 µM
- TGI (MALME-3M melanoma): > 100 µM
- GI50 (DU-145 prostate): > 100 µM
- TGI (DU-145 prostate): > 100 µM
- GI50 (UO-31 renal): 75.9 µM
- TGI (UO-31 renal): > 100 µM
- GI50 (NCI/ADR-RES ovarian): > 100 µM
- TGI (NCI/ADR-RES ovarian): > 100 µM
- GI50 (SK-MEL-5 melanoma): > 100 µM
- TGI (SK-MEL-5 melanoma): > 100 µM
- GI50 (CCRF-CEM leukemia): > 100 µM
- TGI (CCRF-CEM leukemia): > 100 µM
- GI50 (HCT-15 colon): > 100 µM
- TGI (HCT-15 colon): > 100 µM
- GI50 (SF-539 CNS): > 100 µM
- TGI (SF-539 CNS): > 100 µM
- GI50 (RXF 393 renal): > 100 µM
- TGI (RXF 393 renal): > 100 µM
- GI50 (HT29 colon): > 100 µM
- TGI (HT29 colon): > 100 µM
- GI50 (PC-3 prostate): > 100 µM
- TGI (PC-3 prostate): > 100 µM
- GI50 (UACC-257 melanoma): > 100 µM
- TGI (UACC-257 melanoma): > 100 µM
- GI50 (HCT-116 colon): > 100 µM
- TGI (HCT-116 colon): > 100 µM
- GI50 (SN12C renal): > 100 µM
- TGI (SN12C renal): > 100 µM
- GI50 (NCI-H226 lung): > 100 µM
- TGI (NCI-H226 lung): > 100 µM
- GI50 (786-0 renal): > 100 µM
- TGI (786-0 renal): > 100 µM
- GI50 (SF-268 CNS): > 100 µM
- TGI (SF-268 CNS): > 100 µM
- GI50 (IGROV1 ovarian): > 100 µM
- TGI (IGROV1 ovarian): > 100 µM
- GI50 (SNB-19 CNS): > 100 µM
- TGI (SNB-19 CNS): > 100 µM
- GI50 (COLO 205 colon): > 100 µM
- TGI (COLO 205 colon): > 100 µM
- GI50 (OVCAR-3 ovarian): > 100 µM
- TGI (OVCAR-3 ovarian): > 100 µM
- GI50 (TK-10 renal): > 100 µM
- TGI (TK-10 renal): > 100 µM
- GI50 (T-47D breast): > 100 µM
- TGI (T-47D breast): > 100 µM
- GI50 (MDA-MB-231 breast): > 100 µM
- TGI (MDA-MB-231 breast): > 100 µM
- GI50 (HL-60(TB) leukemia): > 100 µM
- TGI (HL-60(TB) leukemia): > 100 µM
- GI50 (CAKI-1 renal): > 100 µM
- TGI (CAKI-1 renal): > 100 µM
- GI50 (M14 melanoma): > 100 µM
- TGI (M14 melanoma): > 100 µM
- GI50 (ACHN renal): > 100 µM
- TGI (ACHN renal): > 100 µM
- GI50 (U251 CNS): > 100 µM
- TGI (U251 CNS): > 100 µM
- GI50 (SF-295 CNS): > 100 µM
- TGI (SF-295 CNS): > 100 µM
- GI50 (SNB-75 CNS): > 100 µM
- TGI (SNB-75 CNS): > 100 µM
- GI50 (KM12 colon): > 100 µM
- TGI (KM12 colon): > 100 µM
- GI50 (SW-620 colon): > 100 µM
- TGI (SW-620 colon): > 100 µM
- GI50 (MCF7 breast): > 100 µM
- TGI (MCF7 breast): > 100 µM
- GI50 (SR leukemia): > 100 µM
- TGI (SR leukemia): > 100 µM
- GI50 (HCC-2998 colon): > 100 µM
- TGI (HCC-2998 colon): > 100 µM
- GI50 (SK-MEL-28 melanoma): > 100 µM
- TGI (SK-MEL-28 melanoma): > 100 µM
